Assay results from PMC10104807, “Modulation of tau tubulin kinases (TTBK1 and TTBK2) impacts ciliogenesis” (Scientific Reports, 2023).

By UniProt entry, the sequences of proteins in these tests, tags left out.
UniProt Q86Z02, whole entry: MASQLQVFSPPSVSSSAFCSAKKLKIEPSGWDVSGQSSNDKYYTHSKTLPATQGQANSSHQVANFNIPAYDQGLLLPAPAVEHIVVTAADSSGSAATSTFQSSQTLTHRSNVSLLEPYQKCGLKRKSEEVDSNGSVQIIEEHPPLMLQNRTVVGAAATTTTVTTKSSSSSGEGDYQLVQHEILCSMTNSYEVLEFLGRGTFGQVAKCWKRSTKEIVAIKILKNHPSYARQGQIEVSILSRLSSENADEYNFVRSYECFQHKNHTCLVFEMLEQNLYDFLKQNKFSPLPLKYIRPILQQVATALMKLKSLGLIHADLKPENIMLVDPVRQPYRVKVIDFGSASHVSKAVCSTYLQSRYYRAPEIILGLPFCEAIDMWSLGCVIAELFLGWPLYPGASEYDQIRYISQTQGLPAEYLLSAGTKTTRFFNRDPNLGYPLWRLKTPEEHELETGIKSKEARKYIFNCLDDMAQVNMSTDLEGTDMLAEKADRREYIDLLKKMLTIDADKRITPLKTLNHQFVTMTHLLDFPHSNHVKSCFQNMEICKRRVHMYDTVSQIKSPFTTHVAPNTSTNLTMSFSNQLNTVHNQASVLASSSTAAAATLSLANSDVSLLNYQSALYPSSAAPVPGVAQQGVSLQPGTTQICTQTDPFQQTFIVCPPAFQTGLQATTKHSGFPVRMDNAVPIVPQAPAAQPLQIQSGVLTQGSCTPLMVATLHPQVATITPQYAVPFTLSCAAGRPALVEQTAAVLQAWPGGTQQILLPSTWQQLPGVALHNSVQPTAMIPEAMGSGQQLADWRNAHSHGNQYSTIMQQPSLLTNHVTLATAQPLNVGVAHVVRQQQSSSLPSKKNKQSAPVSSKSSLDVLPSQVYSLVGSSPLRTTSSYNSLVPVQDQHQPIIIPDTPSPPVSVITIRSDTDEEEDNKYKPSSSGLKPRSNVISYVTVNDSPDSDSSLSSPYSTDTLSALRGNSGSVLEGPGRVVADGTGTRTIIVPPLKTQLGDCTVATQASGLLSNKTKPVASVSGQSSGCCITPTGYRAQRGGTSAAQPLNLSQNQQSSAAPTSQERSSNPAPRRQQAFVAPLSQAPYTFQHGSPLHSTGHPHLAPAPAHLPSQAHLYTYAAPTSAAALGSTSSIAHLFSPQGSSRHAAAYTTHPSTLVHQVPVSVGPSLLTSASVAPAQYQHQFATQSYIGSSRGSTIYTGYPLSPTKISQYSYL
UniProt P27448, whole entry: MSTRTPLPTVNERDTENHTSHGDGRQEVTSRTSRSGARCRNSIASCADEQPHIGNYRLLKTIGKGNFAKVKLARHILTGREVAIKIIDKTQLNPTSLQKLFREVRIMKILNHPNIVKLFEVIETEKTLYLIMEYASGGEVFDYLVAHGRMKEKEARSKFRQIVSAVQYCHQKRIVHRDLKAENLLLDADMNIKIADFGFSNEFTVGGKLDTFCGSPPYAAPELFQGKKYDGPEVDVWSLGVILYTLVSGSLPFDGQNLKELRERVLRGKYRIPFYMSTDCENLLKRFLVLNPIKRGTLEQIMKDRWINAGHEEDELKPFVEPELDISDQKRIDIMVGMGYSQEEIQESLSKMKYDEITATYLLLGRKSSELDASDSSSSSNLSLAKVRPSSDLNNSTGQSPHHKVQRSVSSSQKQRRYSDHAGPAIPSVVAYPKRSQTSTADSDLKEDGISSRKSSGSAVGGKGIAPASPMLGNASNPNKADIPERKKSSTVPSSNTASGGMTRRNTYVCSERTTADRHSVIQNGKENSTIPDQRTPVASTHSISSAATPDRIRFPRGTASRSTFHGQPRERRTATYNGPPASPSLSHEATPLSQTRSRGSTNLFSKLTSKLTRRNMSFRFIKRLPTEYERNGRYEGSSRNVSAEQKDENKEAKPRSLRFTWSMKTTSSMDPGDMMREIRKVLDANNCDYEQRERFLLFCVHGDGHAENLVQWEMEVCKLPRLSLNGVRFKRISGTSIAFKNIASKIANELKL
UniProt Q96L34, whole entry: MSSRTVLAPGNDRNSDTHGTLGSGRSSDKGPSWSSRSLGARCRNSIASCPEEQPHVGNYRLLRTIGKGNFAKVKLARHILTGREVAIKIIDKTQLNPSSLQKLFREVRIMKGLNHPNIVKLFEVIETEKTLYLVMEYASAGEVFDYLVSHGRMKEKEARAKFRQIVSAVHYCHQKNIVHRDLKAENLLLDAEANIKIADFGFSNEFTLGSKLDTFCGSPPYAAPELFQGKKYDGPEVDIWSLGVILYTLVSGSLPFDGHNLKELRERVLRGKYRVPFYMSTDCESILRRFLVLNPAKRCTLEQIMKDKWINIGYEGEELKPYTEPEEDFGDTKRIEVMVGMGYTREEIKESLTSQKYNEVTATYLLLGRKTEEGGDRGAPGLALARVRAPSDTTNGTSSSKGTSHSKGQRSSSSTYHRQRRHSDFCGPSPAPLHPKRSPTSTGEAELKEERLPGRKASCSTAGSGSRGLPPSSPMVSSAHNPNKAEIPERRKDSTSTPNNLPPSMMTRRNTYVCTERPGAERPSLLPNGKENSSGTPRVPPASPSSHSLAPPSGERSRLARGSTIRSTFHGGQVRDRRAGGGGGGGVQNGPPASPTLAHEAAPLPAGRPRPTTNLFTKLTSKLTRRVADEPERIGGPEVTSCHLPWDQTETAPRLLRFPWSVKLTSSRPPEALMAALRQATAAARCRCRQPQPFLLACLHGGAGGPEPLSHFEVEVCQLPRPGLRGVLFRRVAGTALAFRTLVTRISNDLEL
UniProt O75914, whole entry: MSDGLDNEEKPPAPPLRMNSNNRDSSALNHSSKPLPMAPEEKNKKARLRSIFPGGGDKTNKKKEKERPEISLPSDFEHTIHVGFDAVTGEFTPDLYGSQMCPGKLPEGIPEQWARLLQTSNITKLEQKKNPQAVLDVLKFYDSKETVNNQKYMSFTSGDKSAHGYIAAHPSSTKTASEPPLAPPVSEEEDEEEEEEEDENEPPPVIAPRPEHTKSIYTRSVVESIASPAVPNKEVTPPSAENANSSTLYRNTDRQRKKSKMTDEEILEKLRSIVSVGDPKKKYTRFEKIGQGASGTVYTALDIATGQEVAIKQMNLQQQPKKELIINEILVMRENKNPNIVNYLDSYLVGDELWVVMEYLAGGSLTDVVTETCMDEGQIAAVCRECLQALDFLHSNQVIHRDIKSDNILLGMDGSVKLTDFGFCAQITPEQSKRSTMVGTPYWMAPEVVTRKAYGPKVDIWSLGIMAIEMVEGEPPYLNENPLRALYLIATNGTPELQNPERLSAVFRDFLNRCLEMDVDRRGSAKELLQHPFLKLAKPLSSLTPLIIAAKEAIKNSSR
UniProt O96013, whole entry: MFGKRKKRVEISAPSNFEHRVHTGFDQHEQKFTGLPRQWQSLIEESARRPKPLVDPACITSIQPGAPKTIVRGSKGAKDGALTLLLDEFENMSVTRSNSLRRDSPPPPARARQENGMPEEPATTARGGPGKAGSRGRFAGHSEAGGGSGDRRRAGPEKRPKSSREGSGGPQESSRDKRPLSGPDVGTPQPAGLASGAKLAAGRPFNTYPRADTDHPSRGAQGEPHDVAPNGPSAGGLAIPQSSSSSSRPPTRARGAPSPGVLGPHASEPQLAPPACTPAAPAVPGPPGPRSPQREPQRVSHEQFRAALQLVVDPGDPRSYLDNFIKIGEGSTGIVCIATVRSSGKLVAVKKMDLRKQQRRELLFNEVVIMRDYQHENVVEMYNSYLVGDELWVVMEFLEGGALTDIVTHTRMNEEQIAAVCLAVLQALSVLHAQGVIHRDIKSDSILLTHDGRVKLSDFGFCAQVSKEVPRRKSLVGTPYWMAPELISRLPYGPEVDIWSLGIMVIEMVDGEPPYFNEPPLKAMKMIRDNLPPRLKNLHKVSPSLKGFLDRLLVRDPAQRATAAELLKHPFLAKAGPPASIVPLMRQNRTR
UniProt Q9P286, whole entry: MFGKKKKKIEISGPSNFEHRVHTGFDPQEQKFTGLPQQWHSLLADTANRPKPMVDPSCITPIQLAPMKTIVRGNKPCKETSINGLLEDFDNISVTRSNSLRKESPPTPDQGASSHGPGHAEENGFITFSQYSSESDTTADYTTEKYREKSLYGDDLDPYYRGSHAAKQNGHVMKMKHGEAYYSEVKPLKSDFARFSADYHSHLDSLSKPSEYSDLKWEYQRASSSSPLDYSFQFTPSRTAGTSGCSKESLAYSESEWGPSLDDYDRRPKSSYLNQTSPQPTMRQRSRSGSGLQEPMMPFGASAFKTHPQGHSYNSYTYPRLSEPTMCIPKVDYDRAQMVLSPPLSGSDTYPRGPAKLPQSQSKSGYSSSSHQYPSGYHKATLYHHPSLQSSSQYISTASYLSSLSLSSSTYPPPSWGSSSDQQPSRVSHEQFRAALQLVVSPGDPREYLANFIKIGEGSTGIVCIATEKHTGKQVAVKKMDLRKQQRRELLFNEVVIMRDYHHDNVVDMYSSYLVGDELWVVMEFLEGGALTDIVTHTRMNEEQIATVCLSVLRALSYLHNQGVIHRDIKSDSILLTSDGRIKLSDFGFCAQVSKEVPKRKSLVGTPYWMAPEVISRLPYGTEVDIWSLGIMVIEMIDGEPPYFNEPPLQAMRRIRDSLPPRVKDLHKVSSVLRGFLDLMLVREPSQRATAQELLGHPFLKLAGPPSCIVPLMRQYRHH
UniProt Q9NQU5, whole entry: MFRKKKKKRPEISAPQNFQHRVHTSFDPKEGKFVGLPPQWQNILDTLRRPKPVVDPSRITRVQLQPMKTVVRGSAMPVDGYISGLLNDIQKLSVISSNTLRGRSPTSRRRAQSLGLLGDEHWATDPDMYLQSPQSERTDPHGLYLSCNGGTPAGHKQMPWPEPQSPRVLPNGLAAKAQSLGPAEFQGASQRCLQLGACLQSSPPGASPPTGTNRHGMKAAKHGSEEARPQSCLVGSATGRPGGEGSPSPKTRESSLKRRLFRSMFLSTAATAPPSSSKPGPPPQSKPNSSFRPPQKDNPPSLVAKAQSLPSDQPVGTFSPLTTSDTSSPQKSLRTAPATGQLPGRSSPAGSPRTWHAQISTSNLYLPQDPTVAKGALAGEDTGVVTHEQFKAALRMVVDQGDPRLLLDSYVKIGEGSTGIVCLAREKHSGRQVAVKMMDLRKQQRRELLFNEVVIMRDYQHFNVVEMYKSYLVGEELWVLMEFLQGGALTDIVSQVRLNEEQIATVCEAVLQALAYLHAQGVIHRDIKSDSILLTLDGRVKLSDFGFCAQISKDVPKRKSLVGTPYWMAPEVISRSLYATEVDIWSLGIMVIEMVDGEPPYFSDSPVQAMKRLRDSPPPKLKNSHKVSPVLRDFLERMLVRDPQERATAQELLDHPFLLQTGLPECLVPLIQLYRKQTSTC
UniProt Q9H2K8, whole entry: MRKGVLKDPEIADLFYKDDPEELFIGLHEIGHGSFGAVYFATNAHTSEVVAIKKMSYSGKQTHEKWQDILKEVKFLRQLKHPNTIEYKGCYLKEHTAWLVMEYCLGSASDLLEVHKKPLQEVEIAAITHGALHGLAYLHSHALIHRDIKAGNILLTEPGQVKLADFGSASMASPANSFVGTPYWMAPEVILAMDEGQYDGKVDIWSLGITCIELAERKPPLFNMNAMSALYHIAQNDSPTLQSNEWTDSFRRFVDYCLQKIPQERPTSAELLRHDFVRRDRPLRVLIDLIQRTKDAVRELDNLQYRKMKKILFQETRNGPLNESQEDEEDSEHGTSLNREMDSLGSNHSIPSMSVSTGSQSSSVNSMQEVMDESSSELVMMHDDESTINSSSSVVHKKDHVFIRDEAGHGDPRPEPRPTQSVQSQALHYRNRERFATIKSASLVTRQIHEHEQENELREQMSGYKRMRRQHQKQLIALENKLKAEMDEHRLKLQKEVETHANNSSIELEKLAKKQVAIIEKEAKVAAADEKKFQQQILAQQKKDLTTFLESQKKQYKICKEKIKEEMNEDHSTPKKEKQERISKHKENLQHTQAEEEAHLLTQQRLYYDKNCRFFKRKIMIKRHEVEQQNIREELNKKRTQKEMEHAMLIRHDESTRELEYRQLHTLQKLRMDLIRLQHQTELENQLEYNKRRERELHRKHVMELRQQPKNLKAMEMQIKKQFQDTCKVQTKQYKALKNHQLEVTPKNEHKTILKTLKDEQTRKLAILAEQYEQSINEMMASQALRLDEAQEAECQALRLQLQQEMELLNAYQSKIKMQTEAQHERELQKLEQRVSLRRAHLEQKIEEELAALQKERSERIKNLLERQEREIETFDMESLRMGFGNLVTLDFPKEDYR
UniProt Q96PN8, whole entry: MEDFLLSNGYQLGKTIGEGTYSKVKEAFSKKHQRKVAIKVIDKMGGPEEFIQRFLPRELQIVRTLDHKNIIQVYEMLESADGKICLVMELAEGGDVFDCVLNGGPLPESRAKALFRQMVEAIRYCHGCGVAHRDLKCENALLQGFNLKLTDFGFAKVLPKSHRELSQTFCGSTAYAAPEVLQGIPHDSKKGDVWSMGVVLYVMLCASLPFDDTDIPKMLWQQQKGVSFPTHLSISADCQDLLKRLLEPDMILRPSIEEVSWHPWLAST

Experiments:
HIPK1 = HIPK1 (Homo sapiens, UniProt Q86Z02); assay: Eurofins enzymatic radiometric kinase assay; format: biochemical; details: ATP at Km, duplicate
MAP4K5 = MAP4K5 (Homo sapiens, UniProt Q9Y4K4); assay: Eurofins enzymatic radiometric kinase assay; format: biochemical; details: ATP at Km, duplicate
MARK3 = MARK3 (Homo sapiens, UniProt P27448); assay: Eurofins enzymatic radiometric kinase assay; format: biochemical; details: ATP at Km, duplicate
MARK4 = MARK4 (Homo sapiens, UniProt Q96L34); assay: Eurofins enzymatic radiometric kinase assay; format: biochemical; details: ATP at Km, duplicate
PAK3 = PAK3 (Homo sapiens, UniProt O75914); assay: Eurofins enzymatic radiometric kinase assay; format: biochemical; details: ATP at Km, duplicate
PAK4 = PAK4 (Homo sapiens, UniProt O96013); assay: Eurofins enzymatic radiometric kinase assay; format: biochemical; details: ATP at Km, duplicate
PAK5 = PAK5 (Homo sapiens, UniProt Q9P286); assay: Eurofins enzymatic radiometric kinase assay; format: biochemical; details: ATP at Km, duplicate
PAK6 = PAK6 (Homo sapiens, UniProt Q9NQU5); assay: Eurofins enzymatic radiometric kinase assay; format: biochemical; details: ATP at Km, duplicate
TAOK1 = TAOK1 (Homo sapiens, UniProt Q7L7X3); assay: Eurofins enzymatic radiometric kinase assay; format: biochemical; details: 1 μM, ATP at Km, duplicate
TAOK2 = TAOK2 (Homo sapiens, UniProt Q9UL54); assay: Eurofins enzymatic radiometric kinase assay; format: biochemical; details: 1 μM, ATP at Km, duplicate
TAOK3 = TAOK3 (Homo sapiens, UniProt Q9H2K8); assay: Eurofins enzymatic radiometric kinase assay; format: biochemical; details: ATP at Km, duplicate
TSSK1 = TSSK1 (Homo sapiens, UniProt Q9BXA7); assay: Eurofins enzymatic radiometric kinase assay; format: biochemical; details: ATP at Km, duplicate
TSSK2 = TSSK2 (Homo sapiens, UniProt Q96PF2); assay: Eurofins enzymatic radiometric kinase assay; format: biochemical; details: ATP at Km, duplicate
TSSK3 = TSSK3 (Homo sapiens, UniProt Q96PN8); assay: Eurofins enzymatic radiometric kinase assay; format: biochemical; details: 1 μM, ATP at Km, duplicate
TSSK4 = TSSK4 (Homo sapiens, UniProt Q6SA08); assay: Eurofins enzymatic radiometric kinase assay; format: biochemical; details: ATP at Km, duplicate
TTBK1 = TTBK1 (Homo sapiens, UniProt Q5TCY1); assay: Eurofins enzymatic radiometric kinase assay; format: biochemical; details: 1 μM, ATP at Km, duplicate; lower = greater inhibition
TTBK2 = TTBK2 (Homo sapiens, UniProt Q6IQ55); assay: Eurofins enzymatic radiometric kinase assay; format: biochemical; details: 1 μM, ATP at Km, duplicate; lower = greater inhibition
NLuc-TTBK1 = NLuc-TTBK1 (Homo sapiens, UniProt Q5TCY1); assay: TTBK1 NanoBRET cellular target engagement assay in HEK293 cells; format: cell-based; details: 2 μM tracer 29
NLuc-TTBK2 = NLuc-TTBK2 (Homo sapiens, UniProt Q6IQ55); assay: TTBK2 NanoBRET cellular target engagement assay in HEK293 cells; format: cell-based; details: 2 μM tracer 29
[1] = read-out: TTBK1 intact cell NB IC50, intact HEK293 cells
[2] = read-out: TTBK1 permeabilized cell NB IC50, permeabilized HEK293 cells (digitonin)
[3] = read-out: TTBK2 intact cell NB IC50, intact HEK293 cells
[4] = read-out: TTBK2 permeabilized cell NB IC50, permeabilized HEK293 cells (digitonin)

Structure (SMILES)	HIPK1 PoC at 1 μM (HIPK1) [PoC]	MAP4K5 PoC at 1 μM (MAP4K5) [PoC]	MARK3 PoC at 1 μM (MARK3) [PoC]	MARK4 PoC at 1 μM (MARK4) [PoC]	PAK3 PoC at 1 μM (PAK3) [PoC]	PAK4 PoC at 1 μM (PAK4) [PoC]	PAK5 PoC at 1 μM (PAK5) [PoC]	PAK6 PoC at 1 μM (PAK6) [PoC]	TAOK1 PoC at 1 μM (TAOK1) [PoC]	TAOK2 PoC at 1 μM (TAOK2) [PoC]	TAOK3 PoC at 1 μM (TAOK3) [PoC]	TSSK1 PoC at 1 μM (TSSK1) [PoC]	TSSK2 PoC at 1 μM (TSSK2) [PoC]	TSSK3 PoC at 1 μM (TSSK3) [PoC]	TSSK4 PoC at 1 μM (TSSK4) [PoC]	TTBK1 PoC (TTBK1)	TTBK2 PoC (TTBK2)	IC50 (NLuc-TTBK1; [1]) [µM]	IC50 (NLuc-TTBK1; [2]) [µM]	IC50 (NLuc-TTBK2; [3])	other results
CC(O)C#Cc1ccc2[nH]c3c(c2c1)-c1nc(N)ncc1CCC3 (stereo not drawn)	69	-1	27	37	89	10	8	13	2	8	9	8	55	13	86	68 PoC and 68/NT PoC	72 PoC and 72/NT PoC	> 30	7.2	< 30 µM and 26 µM	IC50 (NLuc-TTBK2; [4]): 9.3 µM
CC(C)(O)CC#Cc1ccc2[nH]c3c(c2c1)-c1nc(N)ncc1CCC3	56	3	84	84	110	31	39	40	24	21	28	98	93	34	103	86 PoC and 86/NT PoC	104 PoC and 104/NT PoC	> 30	> 30	> 30 µM	IC50 (NLuc-TTBK2; [4]): > 30 µM
Nc1ncc2c(n1)-c1c([nH]c3ccc(C#CCCO)cc13)CCC2	30	1	31	37	89	22	26	36	1	9	11	57	91	36	103	91 PoC and 91/NT PoC	76 PoC and 76/NT PoC	> 30	25	> 30 µM	IC50 (NLuc-TTBK2; [4]): 19 µM
CC(C)(C#Cc1ccc2[nH]c3c(c2c1)-c1nc(N)ncc1CCC3)CO	84	6	83	73	117	66	77	82	22	55	44	73	77	59	94	85 PoC and 85/NT PoC	103 PoC and 103/NT PoC	> 30	> 30	> 30 µM	IC50 (NLuc-TTBK2; [4]): > 30 µM

Several values for one entry are separate records, joined by “and”; a condition that tells them apart may be missing. Equal entries are not always repeated. Where two headings read alike, the source gives them in different places.
